BindingDB's records for doi:10.1006/jmbi.2000.3966 (Max-Planck-Institut Fuer Biochemie, 2000)
pKi: −log10 of the molar value.

Amino acid sequences for entries named in this document (tags omitted).
UniProt P00750, whole entry: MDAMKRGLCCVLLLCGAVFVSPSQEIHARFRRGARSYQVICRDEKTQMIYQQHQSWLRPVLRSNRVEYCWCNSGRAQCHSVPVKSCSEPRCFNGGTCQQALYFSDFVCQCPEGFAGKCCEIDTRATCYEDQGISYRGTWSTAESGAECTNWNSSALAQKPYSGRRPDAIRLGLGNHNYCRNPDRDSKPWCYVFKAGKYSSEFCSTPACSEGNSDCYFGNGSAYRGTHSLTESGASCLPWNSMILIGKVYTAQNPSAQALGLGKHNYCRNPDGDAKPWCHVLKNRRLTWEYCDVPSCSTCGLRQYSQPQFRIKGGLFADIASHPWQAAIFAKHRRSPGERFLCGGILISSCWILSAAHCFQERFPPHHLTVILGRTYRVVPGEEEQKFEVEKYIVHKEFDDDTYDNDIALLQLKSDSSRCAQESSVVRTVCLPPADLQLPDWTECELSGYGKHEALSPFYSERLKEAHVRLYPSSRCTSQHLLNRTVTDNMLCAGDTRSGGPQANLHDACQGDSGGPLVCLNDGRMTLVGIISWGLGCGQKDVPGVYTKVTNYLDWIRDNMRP

Molecular target: Tissue-type plasminogen activator (Homo sapiens, UniProt P00750)
Experiment: Determination of Inhibition Constants
Conditions: pH 8; 25 °C
Description: The measurements were carried out on a microplate reader. Two concentrations of the substrate and five concentrations of the inhibitor were used in the assay. […] The Ki-values were calculated according to Dixon using a linear regression program. The Ki-values reported are means from at least three determinations.

N=C(N)c1ccccc1 [Benzamidine]
pKi: < 3.00
